Each structure is given as a SMILES string.

Protein sequences, listed by entry. Tags and fused reporters are not part of them. Lines headed by an entry give the natural chain unless they say otherwise; changes in a name come on top.
UniProt Q62758: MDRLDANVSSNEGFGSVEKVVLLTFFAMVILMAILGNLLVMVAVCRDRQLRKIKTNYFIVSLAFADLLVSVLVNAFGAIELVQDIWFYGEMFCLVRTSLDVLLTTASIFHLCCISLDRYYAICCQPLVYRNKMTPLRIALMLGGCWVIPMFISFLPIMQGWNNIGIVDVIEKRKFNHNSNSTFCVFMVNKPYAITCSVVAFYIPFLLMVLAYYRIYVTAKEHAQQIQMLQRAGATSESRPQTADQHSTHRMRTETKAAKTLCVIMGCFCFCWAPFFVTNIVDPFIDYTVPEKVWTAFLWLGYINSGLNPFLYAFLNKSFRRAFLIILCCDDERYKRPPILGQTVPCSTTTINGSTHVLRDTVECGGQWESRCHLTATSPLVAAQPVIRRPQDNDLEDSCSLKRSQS
UniProt P35563, whole entry: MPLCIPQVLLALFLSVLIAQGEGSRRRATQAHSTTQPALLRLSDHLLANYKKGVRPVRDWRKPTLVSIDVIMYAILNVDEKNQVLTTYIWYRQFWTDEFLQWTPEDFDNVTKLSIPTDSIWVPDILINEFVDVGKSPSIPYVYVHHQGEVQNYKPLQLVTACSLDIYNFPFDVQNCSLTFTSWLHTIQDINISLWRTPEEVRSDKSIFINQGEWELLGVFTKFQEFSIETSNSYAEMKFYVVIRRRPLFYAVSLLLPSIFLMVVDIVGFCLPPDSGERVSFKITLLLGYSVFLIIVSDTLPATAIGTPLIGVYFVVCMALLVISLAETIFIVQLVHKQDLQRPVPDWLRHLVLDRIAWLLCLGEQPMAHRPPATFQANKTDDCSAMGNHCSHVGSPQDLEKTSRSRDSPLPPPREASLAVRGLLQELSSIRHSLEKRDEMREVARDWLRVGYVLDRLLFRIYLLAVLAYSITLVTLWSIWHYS
UniProt Q9JJ16: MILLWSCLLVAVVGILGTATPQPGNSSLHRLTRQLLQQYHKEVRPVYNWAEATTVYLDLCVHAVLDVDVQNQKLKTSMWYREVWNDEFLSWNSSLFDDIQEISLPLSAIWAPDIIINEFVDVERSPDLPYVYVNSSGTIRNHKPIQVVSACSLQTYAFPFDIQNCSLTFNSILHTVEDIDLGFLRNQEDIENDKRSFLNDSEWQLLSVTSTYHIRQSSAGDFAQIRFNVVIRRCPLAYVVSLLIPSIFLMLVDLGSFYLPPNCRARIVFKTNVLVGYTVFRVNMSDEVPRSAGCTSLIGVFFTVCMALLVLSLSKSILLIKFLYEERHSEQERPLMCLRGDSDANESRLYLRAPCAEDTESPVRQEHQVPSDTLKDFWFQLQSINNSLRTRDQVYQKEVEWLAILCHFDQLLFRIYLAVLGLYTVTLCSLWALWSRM

Experiment [1] addresses 5-hydroxytryptamine receptor 4 (Rattus norvegicus, UniProt Q62758). Nature of the experiment: Inhibition of radiolabeled [3H]GR-113808 ligand binding to 5-hydroxytryptamine 4 receptor.
The target in experiment [2] is Serotonin 3 (5-HT3) receptor (Rattus norvegicus, UniProt P35563+Q9JJ16). The experiment is described as follows: Inhibition of [3H]BRL-43694 binding to 5-hydroxytryptamine 3 receptor of rat cortical homogenate.

`NCCc1c[nH]c2ccc(O)cc12` [SEROTONIN]: the IC50 in experiment [1] came out at 0.147 µM; in experiment [2], 0.727 µM.

Source of the values: ChEMBL document CHEMBL1130223 (J Med Chem, 1997).
